Results from publication PMC7312485, “Lessons on the Sigma-1 Receptor in TNBS-Induced Rat Colitis: Modulation of the UCHL-1, IL-6 Pathway” (International Journal of Molecular Sciences, 2020).

Amino acid sequences for entries named in this document (tags omitted).
UniProt Q9R0C9, whole entry: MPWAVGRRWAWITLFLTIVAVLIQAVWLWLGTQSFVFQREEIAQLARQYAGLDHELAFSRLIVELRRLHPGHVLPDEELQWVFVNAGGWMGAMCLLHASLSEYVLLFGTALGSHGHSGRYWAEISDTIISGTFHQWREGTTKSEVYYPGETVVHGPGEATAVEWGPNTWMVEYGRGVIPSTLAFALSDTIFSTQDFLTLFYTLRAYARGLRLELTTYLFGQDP

Molecular target: T1, sigma-1 receptor (σ1R) (Rattus norvegicus, UniProt Q9R0C9)
T1 construct: from tissue; host or cells: rat colon membrane homogenate (male Wistar–Harlan rats; control, TNBS, 50% EtOH, TNBS + FLV treated)
Experiment: [3H](+)-pentazocine saturation binding in rat colon membranes
Protocol: The homogenate was centrifuged at 17,000× g for 10 min (4 °C).
The incubation was terminated by diluting the samples with an ice-cold wash buffer (50 mM of Tris–HCl, pH 8.0), followed by repeated washing and rapid filtration through Whatman GF/B glass fiber filters (Whatman Ltd., Maidstone, UK) presoaked with 0.1% polyethyleneimine. Filtration was performed with a 24-well Brandel Cell Harvester (Gaithersburg, MD, USA). Filters were air-dried and immersed into Ultima Gold MV scintillation cocktail, and then radioactivity was measured with a TRI-CARB 2100TR liquid scintillation analyzer (Packard, Perkin Elmer, Waltham, MA, USA).
All data are presented as mean ± SEM. […] In competition binding studies, the inhibitory constants (Ki) were calculated from the inflection points of the displacement curves using nonlinear least-square curve fitting and the Cheng–Prusoff equation, Ki = EC50/(1 + [ligand]/Kd).

With `CC(C)=CCN1CC[C@]2(C)c3cc(O)ccc3C[C@H]1[C@H]2C` [[^3H](+)-pentazocine] the “Bmax ± S.E.M., saturation binding (σ1R density)” value (50% EtOH enema treated rat colon membranes) was 96 ± 5.2 fmol/mg, the “Bmax ± S.E.M., saturation binding (σ1R density)” value (Abs. control rat colon membranes) was 126 ± 17 fmol/mg and 126 ± 15 fmol/mg and the “Bmax ± S.E.M., saturation binding (σ1R density)” value (TNBS-induced colitis rat colon membranes) was 79 ± 6.5 fmol/mg. For the same compound, the “Bmax ± S.E.M., saturation binding (σ1R density)” value (TNBS-induced colitis rat colon membranes after 1 mg/kg FLV administration (TNBS + FLV)) was 134 ± 14 fmol/mg.

Where “and” joins values, the source holds several entries; their conditions need not be identical. Identical values can stand only once.
